One assay concerns the target HDAC6 (Homo sapiens, UniProt Q9UBN7). The experiment in a line: HDAC6 enzyme activity inhibition IC50 evaluation experiment. As to conditions: read-out: HDAC6 IC50; HDAC6 5 nM, acetylated peptide 11 μM, trypsin, fluorescence.
A further assay has as its target PI3Kδ (Homo sapiens, UniProt O00329). Kind of assay: PI3Kδ enzyme activity inhibition IC50 evaluation assay (ADP-Glo Kinase Assay). As to conditions: read-out: PI3K-δ IC50, ATP 25 μM, PIP2 50 μg/mL, 1 hour room temperature. (In general: ADP-Glo turns the ADP formed in a reaction into a luminescent signal.)
In another assay the target is PI3Kα (Homo sapiens, UniProt P42336). Kind of assay: PI3Kα enzyme activity inhibition IC50 evaluation assay (ADP-Glo Kinase Assay). As to conditions: read-out: PI3K-α IC50, ATP 25 μM, PIP2 50 μg/mL, 1 hour room temperature.
In the next assay the target is HDAC1 (Homo sapiens, UniProt Q13547). Kind of assay: HDAC1 enzyme activity inhibition IC50 evaluation experiment. The following applies: read-out: HDAC1 IC50; HDAC1 10 nM, acetylated peptide 8 μM, trypsin, fluorescence. As to the method: (§1) Effect Example 2 HDAC1, HDAC2, HDAC3, HDAC6 enzyme activity inhibition IC50 evaluation experiment
(§2) Buffer solution (50 mM Tris 7.5, 0.01% Tween-20, 50 mM NaCl) was prepared according to the kit instructions, and the enzyme solution and substrate solution (acetylated peptide with the addition of trypsin) were prepared using the buffer solution. The test compound samples were dissolved with DMSO and added to the screening system at a certain starting concentration such as 10 μM, 3-fold dilution, while setting up a DMSO control and no-enzyme control. The enzyme reaction system includes: buffer, enzyme [final concentration: HDAC1=10 nM, HDAC2=4 nM, HDAC3=7 nM, HDAC6=5 nM], substrate (acetylated peptide) [final concentration: Peptide(HDAC1)=8 μM, Peptide(HDAC2)=10 μM, Peptide(HDAC3)=5 μM, Peptide(HDAC6)=11 μM], trypsin [final concentration: Trypsin(HDAC1,2,3)=0.05 μM, Trypsin(HDAC6)=0.1 μM], etc. The enzymes and compounds were reacted at room temperature for 15 min. After adding the substrate and Trypsin, centrifugation was performed for 1 min, and the fluorescence signal data (excitation wavelength 355 nM/emission wavelength 460 nm) was read continuously for 60 min using Envision, and the linear reaction segment was selected to obtain the slope and thus calculate the inhibition rate at that concentration. […]

Chains of the proteins cited; added tags and fusions are not shown. Lines headed by an entry give the natural chain unless they say otherwise; changes in a name come on top. Residues count along the entry.
UniProt Q9UBN7, whole entry: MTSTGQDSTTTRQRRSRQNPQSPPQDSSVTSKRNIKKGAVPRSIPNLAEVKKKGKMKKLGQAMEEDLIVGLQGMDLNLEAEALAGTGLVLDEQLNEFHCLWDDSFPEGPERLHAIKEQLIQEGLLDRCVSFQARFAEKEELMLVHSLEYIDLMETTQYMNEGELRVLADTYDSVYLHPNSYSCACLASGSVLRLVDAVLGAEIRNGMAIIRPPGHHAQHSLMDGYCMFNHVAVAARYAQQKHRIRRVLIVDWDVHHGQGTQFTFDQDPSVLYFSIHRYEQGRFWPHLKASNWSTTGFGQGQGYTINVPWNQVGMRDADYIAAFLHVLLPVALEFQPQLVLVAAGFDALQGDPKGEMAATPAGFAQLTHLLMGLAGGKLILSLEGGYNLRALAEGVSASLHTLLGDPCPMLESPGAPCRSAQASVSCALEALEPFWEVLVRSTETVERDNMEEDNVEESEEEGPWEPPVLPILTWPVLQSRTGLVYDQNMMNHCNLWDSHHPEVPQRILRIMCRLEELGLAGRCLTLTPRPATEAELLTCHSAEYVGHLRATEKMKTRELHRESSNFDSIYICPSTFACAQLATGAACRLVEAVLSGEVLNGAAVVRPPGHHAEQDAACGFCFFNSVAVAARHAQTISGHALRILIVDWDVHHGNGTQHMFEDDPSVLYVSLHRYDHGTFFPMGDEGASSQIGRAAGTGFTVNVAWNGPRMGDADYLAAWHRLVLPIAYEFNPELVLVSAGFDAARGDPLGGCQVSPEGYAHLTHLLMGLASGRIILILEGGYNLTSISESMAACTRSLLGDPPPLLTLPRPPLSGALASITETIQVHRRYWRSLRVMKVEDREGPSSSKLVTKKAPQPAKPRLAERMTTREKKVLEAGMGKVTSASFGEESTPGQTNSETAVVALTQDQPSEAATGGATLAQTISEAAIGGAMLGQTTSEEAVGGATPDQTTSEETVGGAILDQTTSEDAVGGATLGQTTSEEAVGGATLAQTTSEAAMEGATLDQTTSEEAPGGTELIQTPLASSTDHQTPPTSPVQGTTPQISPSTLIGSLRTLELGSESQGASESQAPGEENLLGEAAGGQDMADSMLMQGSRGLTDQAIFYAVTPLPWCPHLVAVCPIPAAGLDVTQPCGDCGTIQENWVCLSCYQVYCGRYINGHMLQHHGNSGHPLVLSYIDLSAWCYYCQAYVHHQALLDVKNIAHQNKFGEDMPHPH
UniProt O00329, whole entry: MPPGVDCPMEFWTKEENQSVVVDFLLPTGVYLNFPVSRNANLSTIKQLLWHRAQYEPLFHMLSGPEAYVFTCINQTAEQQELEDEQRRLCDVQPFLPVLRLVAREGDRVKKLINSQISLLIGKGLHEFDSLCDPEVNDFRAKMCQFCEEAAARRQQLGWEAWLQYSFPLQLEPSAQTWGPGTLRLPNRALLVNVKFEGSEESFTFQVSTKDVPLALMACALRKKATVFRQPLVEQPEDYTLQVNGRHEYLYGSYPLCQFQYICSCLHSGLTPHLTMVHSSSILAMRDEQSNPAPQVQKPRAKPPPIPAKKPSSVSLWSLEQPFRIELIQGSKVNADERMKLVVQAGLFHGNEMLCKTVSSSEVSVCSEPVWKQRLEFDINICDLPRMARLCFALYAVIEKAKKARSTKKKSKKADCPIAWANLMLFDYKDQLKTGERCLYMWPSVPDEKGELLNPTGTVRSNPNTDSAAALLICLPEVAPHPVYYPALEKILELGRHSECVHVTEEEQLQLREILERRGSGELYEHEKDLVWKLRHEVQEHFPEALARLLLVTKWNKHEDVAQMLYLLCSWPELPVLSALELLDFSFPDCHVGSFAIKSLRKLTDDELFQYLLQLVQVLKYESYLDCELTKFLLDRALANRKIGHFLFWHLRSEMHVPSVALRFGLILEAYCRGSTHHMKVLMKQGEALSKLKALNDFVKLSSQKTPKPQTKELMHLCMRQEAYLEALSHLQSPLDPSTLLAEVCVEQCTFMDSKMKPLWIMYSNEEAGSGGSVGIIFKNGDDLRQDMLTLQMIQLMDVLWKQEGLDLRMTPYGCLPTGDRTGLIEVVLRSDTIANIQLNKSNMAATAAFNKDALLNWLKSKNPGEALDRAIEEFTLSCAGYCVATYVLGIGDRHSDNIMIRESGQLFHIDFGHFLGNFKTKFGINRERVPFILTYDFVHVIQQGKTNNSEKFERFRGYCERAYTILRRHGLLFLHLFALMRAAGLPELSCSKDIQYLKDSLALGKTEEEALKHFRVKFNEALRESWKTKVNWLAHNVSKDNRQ
UniProt Q13547, whole entry: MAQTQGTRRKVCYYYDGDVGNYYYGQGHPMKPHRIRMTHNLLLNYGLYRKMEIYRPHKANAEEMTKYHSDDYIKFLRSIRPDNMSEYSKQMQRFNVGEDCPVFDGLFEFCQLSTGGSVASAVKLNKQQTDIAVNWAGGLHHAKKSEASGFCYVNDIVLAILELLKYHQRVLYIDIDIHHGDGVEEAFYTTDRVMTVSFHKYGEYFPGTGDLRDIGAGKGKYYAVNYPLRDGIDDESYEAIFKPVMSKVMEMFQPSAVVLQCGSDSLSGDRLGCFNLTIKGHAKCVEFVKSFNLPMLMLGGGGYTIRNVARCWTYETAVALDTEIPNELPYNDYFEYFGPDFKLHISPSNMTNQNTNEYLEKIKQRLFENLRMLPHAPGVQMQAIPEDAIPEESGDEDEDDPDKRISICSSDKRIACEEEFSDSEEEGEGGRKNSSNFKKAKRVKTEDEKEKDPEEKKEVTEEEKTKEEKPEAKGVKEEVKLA
UniProt P48736, whole entry: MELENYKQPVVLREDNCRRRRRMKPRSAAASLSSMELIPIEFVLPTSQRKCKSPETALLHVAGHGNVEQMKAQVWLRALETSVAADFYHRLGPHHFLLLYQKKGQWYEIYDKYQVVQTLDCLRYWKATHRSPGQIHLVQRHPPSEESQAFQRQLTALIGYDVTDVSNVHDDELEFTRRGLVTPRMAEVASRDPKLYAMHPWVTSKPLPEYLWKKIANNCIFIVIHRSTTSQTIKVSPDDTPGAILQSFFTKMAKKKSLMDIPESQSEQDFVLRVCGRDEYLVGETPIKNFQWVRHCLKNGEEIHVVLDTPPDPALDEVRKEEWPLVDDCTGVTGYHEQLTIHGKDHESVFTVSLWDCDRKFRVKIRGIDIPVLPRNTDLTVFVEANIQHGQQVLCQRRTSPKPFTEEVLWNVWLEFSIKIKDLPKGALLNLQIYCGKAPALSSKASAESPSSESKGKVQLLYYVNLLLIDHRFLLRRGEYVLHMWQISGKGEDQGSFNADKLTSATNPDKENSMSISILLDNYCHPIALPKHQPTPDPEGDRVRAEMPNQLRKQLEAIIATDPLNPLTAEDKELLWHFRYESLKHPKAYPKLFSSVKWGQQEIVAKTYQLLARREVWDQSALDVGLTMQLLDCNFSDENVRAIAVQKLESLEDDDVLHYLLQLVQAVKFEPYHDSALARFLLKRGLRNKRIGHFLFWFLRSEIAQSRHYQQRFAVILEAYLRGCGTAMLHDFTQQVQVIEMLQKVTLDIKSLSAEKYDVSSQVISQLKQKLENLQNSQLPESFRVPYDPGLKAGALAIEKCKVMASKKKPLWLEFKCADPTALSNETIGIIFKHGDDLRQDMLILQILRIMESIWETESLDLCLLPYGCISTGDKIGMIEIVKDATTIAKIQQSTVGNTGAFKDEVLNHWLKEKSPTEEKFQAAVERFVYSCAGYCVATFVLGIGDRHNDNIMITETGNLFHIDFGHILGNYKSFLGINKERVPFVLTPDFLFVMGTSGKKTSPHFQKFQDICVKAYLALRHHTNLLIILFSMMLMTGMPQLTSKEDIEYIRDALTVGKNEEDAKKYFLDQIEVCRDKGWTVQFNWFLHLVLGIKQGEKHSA
UniProt P42338, whole entry: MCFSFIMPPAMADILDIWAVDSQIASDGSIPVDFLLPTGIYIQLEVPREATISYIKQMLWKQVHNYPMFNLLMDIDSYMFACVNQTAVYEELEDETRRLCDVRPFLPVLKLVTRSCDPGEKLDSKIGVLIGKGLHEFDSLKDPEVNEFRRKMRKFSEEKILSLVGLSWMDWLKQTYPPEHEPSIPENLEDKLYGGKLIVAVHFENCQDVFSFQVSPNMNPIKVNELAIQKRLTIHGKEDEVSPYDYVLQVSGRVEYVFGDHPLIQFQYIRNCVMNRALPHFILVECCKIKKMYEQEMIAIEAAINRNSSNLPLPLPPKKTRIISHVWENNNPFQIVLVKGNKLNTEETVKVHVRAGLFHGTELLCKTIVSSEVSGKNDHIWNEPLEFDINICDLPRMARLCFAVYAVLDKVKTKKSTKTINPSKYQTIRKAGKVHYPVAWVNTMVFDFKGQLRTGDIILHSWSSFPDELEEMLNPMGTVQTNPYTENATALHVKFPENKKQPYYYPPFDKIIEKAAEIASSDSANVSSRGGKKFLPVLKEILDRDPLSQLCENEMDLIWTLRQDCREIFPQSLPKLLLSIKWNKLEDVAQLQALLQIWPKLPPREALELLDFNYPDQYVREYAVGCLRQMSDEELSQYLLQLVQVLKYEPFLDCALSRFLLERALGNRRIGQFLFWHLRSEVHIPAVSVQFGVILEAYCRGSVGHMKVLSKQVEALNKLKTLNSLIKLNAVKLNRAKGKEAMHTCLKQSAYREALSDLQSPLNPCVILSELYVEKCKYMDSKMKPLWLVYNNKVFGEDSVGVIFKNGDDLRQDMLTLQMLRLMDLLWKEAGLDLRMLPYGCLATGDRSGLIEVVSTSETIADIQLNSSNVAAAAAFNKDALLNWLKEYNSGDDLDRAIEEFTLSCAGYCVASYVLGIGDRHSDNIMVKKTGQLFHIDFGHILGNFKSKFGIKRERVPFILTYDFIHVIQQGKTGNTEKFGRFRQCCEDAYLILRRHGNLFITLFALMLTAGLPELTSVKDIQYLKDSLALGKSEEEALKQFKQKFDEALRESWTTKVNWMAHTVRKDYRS
UniProt Q92769, whole entry: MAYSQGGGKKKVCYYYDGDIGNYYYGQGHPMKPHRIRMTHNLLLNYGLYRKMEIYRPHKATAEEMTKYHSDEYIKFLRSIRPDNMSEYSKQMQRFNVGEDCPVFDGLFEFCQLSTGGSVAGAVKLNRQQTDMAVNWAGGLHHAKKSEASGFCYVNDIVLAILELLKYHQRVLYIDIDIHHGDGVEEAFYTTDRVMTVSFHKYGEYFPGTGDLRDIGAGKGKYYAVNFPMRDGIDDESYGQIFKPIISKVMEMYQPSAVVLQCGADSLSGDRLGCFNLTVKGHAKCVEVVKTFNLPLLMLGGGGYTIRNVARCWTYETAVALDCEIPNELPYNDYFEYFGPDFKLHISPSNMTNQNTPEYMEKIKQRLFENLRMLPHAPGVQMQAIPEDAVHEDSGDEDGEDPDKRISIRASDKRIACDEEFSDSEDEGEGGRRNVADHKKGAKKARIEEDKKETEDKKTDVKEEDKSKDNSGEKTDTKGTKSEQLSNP
UniProt Q969S8, whole entry: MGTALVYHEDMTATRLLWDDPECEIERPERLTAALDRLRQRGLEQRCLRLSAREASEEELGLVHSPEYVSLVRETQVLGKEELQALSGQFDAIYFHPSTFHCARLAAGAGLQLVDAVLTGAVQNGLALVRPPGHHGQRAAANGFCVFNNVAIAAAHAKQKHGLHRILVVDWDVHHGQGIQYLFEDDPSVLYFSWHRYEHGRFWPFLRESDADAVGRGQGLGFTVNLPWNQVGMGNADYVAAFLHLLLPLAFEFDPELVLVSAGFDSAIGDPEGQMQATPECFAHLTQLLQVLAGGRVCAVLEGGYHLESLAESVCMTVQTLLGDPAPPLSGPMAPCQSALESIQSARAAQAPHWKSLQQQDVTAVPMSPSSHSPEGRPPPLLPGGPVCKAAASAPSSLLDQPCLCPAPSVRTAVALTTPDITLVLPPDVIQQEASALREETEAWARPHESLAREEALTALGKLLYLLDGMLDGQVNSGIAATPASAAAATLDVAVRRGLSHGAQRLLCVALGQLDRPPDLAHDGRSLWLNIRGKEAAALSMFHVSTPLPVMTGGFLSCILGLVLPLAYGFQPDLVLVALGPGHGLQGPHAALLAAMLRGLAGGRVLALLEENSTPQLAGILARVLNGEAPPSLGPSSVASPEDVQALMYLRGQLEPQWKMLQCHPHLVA
UniProt O15379, whole entry: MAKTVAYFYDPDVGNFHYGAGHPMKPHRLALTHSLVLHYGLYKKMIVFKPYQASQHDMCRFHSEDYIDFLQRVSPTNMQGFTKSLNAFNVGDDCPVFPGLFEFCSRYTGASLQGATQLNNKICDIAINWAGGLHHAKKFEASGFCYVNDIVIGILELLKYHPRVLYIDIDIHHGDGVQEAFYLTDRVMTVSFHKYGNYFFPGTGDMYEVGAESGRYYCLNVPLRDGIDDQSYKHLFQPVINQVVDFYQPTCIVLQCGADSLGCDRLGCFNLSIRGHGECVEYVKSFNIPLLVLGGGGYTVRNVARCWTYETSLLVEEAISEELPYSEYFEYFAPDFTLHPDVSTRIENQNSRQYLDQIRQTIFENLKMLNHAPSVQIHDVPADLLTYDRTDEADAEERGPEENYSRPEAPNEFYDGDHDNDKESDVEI
UniProt Q9Y618, 395-489 partner limits assumed: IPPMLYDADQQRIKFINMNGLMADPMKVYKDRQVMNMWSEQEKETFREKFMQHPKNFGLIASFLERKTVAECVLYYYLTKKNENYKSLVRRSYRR

The target of a further assay is PI3Kγ (Homo sapiens, UniProt P48736). The experiment in a line: PI3Kγ enzyme activity inhibition IC50 evaluation assay (ADP-Glo Kinase Assay). As to conditions: read-out: PI3K-γ IC50, ATP 25 μM, PIP2 50 μg/mL, 1 hour room temperature.
The next assay deals with PI3Kβ (Homo sapiens, UniProt P42338). Kind of assay: PI3Kβ enzyme activity inhibition IC50 evaluation assay (ADP-Glo Kinase Assay). As to conditions: read-out: PI3K-β IC50, ATP 25 μM, PIP2 50 μg/mL, 1 hour room temperature.
Another assay deals with HDAC2 (Homo sapiens, UniProt Q92769). Kind of assay: HDAC2 enzyme activity inhibition IC50 evaluation experiment. The following applies: read-out: HDAC2 IC50; HDAC2 4 nM, acetylated peptide 10 μM, trypsin, fluorescence. As to the method: as §1, §2
The next assay concerns the target HDAC10 (Homo sapiens, UniProt Q969S8). Kind of assay: HDAC10 enzyme activity inhibition IC50 evaluation experiment. As to conditions: read-out: HDAC10 IC50; HDAC10 10 nM, acetylated peptide 4 μM, 240 min, fluorescence. As to the method:
Effect Example 3 HDAC8, HDAC10 enzyme activity inhibition IC50 evaluation experiment
Prepare buffer solution (HDAC8: 50 mM Tris 8.0, 2.7 mM KCl, 137 mM NaCl, 1 mM MgCl2, 1 mg/mL BSA; HDAC10: 50 mM Tris 7.5, 0.01% Tween-20, 50 mM NaCl, 0.05 mg/mL BSA) according to the kit instructions, prepared Enzyme solution, substrate solution (acetylated peptide) by using buffer. The test compound samples were dissolved in DMSO and was added to the screening system at a certain starting concentration such as 10 μM, 3-fold dilution, while setting up the DMSO control and the no-enzyme control. The enzyme reaction system includes: buffer, enzyme [final concentration: HDAC8=10 nM, HDAC10=10 nM], substrate (acetylated peptide) [final concentration: Peptide(HDAC8)=20 μM, Peptide(HDAC10)=4 μM], etc. The enzymes and compounds were reacted at room temperature for 15 minutes. After adding the substrate peptide the reaction system was reacted at room temperature for 240 min. Trypsin solution was added [final concentration: Trypsin=50p M] and incubation continued for 120 min. The fluorescence signal data (excitation wavelength 355 nM/emission wavelength 460 nm) was read with Envision instrument. Calculate the inhibition rate at this concentration based on the relative fluorescence units (RFU). The IC50 value was obtained by fitting a curve using the formula Y=Bottom+(Top-Bottom)/(1+(IC50/X)^HillSlope).

The next assay addresses HDAC3 (Homo sapiens, UniProt O15379). Kind of assay: HDAC3 enzyme activity inhibition IC50 evaluation experiment. The following applies: read-out: HDAC3 IC50; HDAC3 7 nM, acetylated peptide 5 μM, trypsin, fluorescence. As to the method:
as §1, §2

On to `COc1ncc(-c2nc(N3CCOCC3)nc3c(CN4CCC(CC(=O)NO)CC4)cc(F)cc23)cc1NS(C)(=O)=O`, for which the IC50 was in the range of 1 to 10 µM on HDAC6 and 0.01 to 0.1 µM at PI3Kδ.

As to `COc1ncc(-c2nc(N3CCOCC3)nc3c(CN4CCC(OCCOCC(=O)NO)CC4)cc(F)cc23)cc1NS(C)(=O)=O`, the IC50 on HDAC6 was greater than 10 µM; on PI3Kα it was 1 to 10 µM; on PI3Kδ, less than 0.01 µM.

For the compound `COc1ncc(-c2nc(N3CCOCC3)nc3c(CN4CCC(CCC(=O)NO)CC4)cc(F)cc23)cc1NS(C)(=O)=O`, the values for the IC50 at HDAC6 and on PI3Kδ were 0.1 to 1 µM and less than 0.01 µM, respectively.

With `COc1ncc(-c2nc(N3CCOCC3)nc3c(CN4CCC(CCCC(=O)NO)CC4)cc(F)cc23)cc1NS(C)(=O)=O`, the IC50 at HDAC6 was 0.01 to 0.1 µM; at HDAC1, 0.1 to 1 µM; at PI3Kγ, greater than 10 µM; on PI3Kβ, 0.1 to 1 µM; at HDAC2, 0.1 to 1 µM; on HDAC10, 1 to 10 µM. For the same compound, the IC50 is 1 to 10 µM at PI3Kα, 0.1 to 1 µM at HDAC3 and less than 0.01 µM at PI3Kδ.

Values taken from patent US20240217947A1, “Morpholinylquinazoline Compound, Pharmaceutical compositions thereof and Use Thereof” (SHANGHAI YINGLI PHARMACEUTICAL CO., LTD, priority 2022, published 2024).
